## Antibody variant affinities, Ab-14 light chain, assay B

Target: peptide PDVDLGDISGINAS, taken from heptad repeat 2 (HR2) of SARS-CoV-2 spike.

Parent: Ab-14, a human scFv built as VH, the linker GGGGSGGGGSGGGGS, VL. Only the CDRs of the light chain vary.
VH: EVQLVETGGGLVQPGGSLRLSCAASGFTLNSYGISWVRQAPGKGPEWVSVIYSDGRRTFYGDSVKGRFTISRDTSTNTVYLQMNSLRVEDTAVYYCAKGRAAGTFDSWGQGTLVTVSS
VL: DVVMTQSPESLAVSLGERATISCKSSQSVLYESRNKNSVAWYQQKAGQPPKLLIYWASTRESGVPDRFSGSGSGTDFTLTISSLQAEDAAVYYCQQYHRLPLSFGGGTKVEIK

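The parent was found by panning a naive human phage display library on the peptide. The variants were designed computationally from a first round of random CDR variants and then made and measured. Several design methods are mixed in this list. The assay is AlphaSeq: two haploid yeast populations carry antibody and antigen on their surface. Mating (16 h, 30 °C) was followed by selection of diploids and sequencing of their barcodes. The ratio of observed to expected reads was calibrated, replicate by replicate, on BCL2-family standards whose Kd was known from biolayer interferometry. Mating was done six times.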

Each variant is given by its three light chain CDRs, as the data file delimits them; those of the parent are KSSQSVLYESRNKNSVA, WASTRES, QQYHRLPLS.
Scale: log10 of Kd in nM, estimated from mating counts; low values are strong binders.
Averages over replicates are reported, and they cover detected replicates only.
A pair that was not seen in any replicate is written "nd"; this usually means weak binding, but a binder can also be missed.
Of ten entries with the parent sequence, four were seen in most replicates (averages 0.34 to 2.37), three in one and three in none, so single entries are noisy.

With KSSQDVPYESRNKNSVA, DASHRES, QQYHRLPLS the result was 0.03 (6 of 6 replicates; controls 0 of 18).
With KSSQSVSYESTNENSVA, WATTREH, QGYHRLPLS the result was nd (0 of 6 replicates; controls 0 of 18).
With KLSQSVLYESRNKNSVA, NASTRMK, QQYHRLPLS the result was -0.05 (6 of 6 replicates; controls 2 of 18).
With KSLQSVLYESANKNSVA, WASTRES, QQYHRLPLS the result was 2.74 (3 of 6 replicates; controls 1 of 18).
With KLSQAFLYESRNKNSVA, DANTRES, QQYHRLPLS the result was -0.13 (6 of 6 replicates; controls 1 of 18).
With KLSQSVMYESRNKNNVA, DASTRES, QQYHRLPLS the result was -0.63 (6 of 6 replicates; controls 2 of 18).
With KLSGSVLYESRNKNSVA, GASTRES, QQYHRLPLS the result was 0.18 (6 of 6 replicates; controls 0 of 18).
With KLGEKERMNGMANKNVA, AMNTRVD, QEYHRLPLI the result was 0.07 (6 of 6 replicates; controls 4 of 18).
With KVQYQLAYSQAHTNNIA, DASVVCA, QQYQRLPIG the result was 0.88 (6 of 6 replicates; controls 0 of 18).
With KLEQSHLYESRNKNSVA, NASTRLS, QQYHRLPLS the result was -0.03 (6 of 6 replicates; controls 2 of 18).
With KSQQSQLYESRNFNSVA, NASTRES, QQYHRLPLS the result was 1.37 (6 of 6 replicates; controls 0 of 18).
With KSGQGDLYESRNKNSVA, GASQRWS, QQYHRLPLS the result was -0.16 (6 of 6 replicates; controls 2 of 18).
With ALSQSMDMTSRNHNSVA, DLSTREN, QQYHRLPLS the result was -0.34 (6 of 6 replicates; controls 0 of 18).
With KLSMMVDYVSATHSSVA, QTSTREE, QQYHRLPLS the result was 0.71 (6 of 6 replicates; controls 0 of 18).
With KFDQSQDYESRNKNSVA, QASQREQ, QQYHRLPLY the result was 0.25 (6 of 6 replicates; controls 1 of 18).
With KLSQSQLYESRNKNSVA, NASTRCD, QQYHRLPLS the result was -0.32 (6 of 6 replicates; controls 1 of 18).
With ALQQLELYESRNWNSVA, NASTREK, QQYHRLPLS the result was 0.08 (6 of 6 replicates; controls 0 of 18).

Second part, the sequence after the result:

1.01 (6 of 6 replicates; controls 1 of 18): TISNVMNTLTRHGNNVA, DLQEREE, QQYFRLPLS.
-0.06 (6 of 6 replicates; controls 0 of 18): KLPQSQLYESRNKNSVA, QASTRES, QQYHRLPLS.
1.17 (6 of 6 replicates; controls 1 of 18): TLMQVGGYEMNAHNSIA, DLRTREN, QQYHRLPLS.
-0.13 (6 of 6 replicates; controls 0 of 18): KISQSFLYESRNVNSVA, GASTRES, QQYHRLPLS.
1.51 (6 of 6 replicates; controls 1 of 18): IISGSMLMESRSKNSVA, NAETREY, QHYDRLPLS.
-0.02 (6 of 6 replicates; controls 3 of 18): KMQQSGLMESRNDNSVA, HASTRLE, QQYHRLPLS.
0.39 (6 of 6 replicates; controls 1 of 18): KLMPSEWYESRMCNSVA, NASVREQ, QQYHRLPLS.
0.47 (6 of 6 replicates; controls 1 of 18): KSLWSVLYESNNKNSVA, GASTRED, QQYHRLPLS.
1.90 (6 of 6 replicates; controls 0 of 18): KSSQSVLDNSRNKNSVA, WASTREH, QQYHRLPLS.
2.62 (1 of 6 replicates; controls 0 of 18): IVSGLMLWGMHVKNSIA, EAVTRLN, QQYDRLPLF.
1.09 (6 of 6 replicates; controls 0 of 18): NMNVGLNFGKIQEQAIA, EVEDRES, QQYARLPLT.
0.17 (6 of 6 replicates; controls 0 of 18): KLYQATAMTSSMRNNVA, DLNERER, QQYFRLPLS.
1.34 (6 of 6 replicates; controls 0 of 18): KSGQSVLGESRNKNSVA, WASTRES, QQYHRLPLS.
1.81 (5 of 6 replicates; controls 0 of 18): KLSQYVGGESRNKSSLA, DNETRES, QQYHRLPLS.
-0.05 (6 of 6 replicates; controls 0 of 18): KISQSVLMESRNCNSVA, DASTRES, QQYHRLPLS.
1.19 (6 of 6 replicates; controls 2 of 18): MMSQVTGTGQRHRNNVA, QTSTREP, QQYDHLPLI.
0.05 (6 of 6 replicates; controls 0 of 18): HIQDARGGLSSQWNSVA, STEERSH, QQYHRLPLS.
2.18 (5 of 6 replicates; controls 0 of 18): KSDQSVLYESRNKNSVA, WASTRES, QQYHRLPIS.

Values of this round are not directly comparable with the first-round values of the same sequences.
Nonspecific signal, from three strains lacking the peptide, appeared in 4% of pairings of all light chain designs, centred on 2.64 (5% of these signals below 1.59); values are not corrected for it. For each scFv, signals with the empty controls are counted beside the result.
The authors' rule: three or more of the six replicates give a measured affinity, fewer mean a poor binder.

Data: MIT Lincoln Laboratory AlphaSeq set, Li et al. 2023, doi:10.1038/s41467-023-39022-2, as distributed in FLAb.